Laboratory results published in patent US12582616B2, “Molecular targets for modulation of dissociative and associative states” (The Board of Trustees of the Leland Stanford Junior …, priority 2020, dated 2026).

Experiments:
[1] = system: brain regions correlated with RSP; assay: Simultaneous recording from four Neuropixels probes with i.p. drug delivery; conditions: subanesthetic ketamine
layer 5 RSP neurons = assay: Ketamine-TRAP (TRAP2) brain-wide activity-mapping; format: in vivo, mouse; conditions: 50 mg/kg ketamine injections
Experimental: Dissolved 4-OHT (20 mg/mL in ethanol) was mixed with corn oil at a concentration of 10 mg/mL, and ethanol evaporated by vacuum centrifugation (60 minutes). Mice were each placed alone in a novel cage for 30 minutes, to remain for the experiment. Two mice were injected with 50 mg/kg ketamine intraperitoneally, and two mice were injected with an equivalent volume of saline. After 1 hr, all mice were injected with 50 mg/kg tamoxifen, as well as an additional dose of 50 mg/kg ketamine/saline. After 1 hr, a final dose of ketamine/saline was administered. This protocol was designed to ensure that the ketamine-induced oscillation (and associated cFos expression) was occurring throughout the majority of the ˜4 hr post-tamoxifen-injection time window during which TRAP2 labels cells. After 10 days (to allow time for expression of tdTomato), mice were perfused with ice cold PBS and 4% PFA. Coronal sections (50 μm) were taken using a vibratome and imaged on an epifluorescence microscope.

## CNC1(c2ccccc2Cl)CCCCC1=O (centres unmarked) [ketamine]
[1]
  phase of anteromedial thalamic neurons relative to RSP: oscillate out-of-phase with RSP
Layer 5 RSP neurons
  layer recruited in TRAP2 activity-mapping: layer 5 was specifically recruited
